# Test results from US10300140B2, “Sur-binding proteins against ERBB3” (I2 PHARMACEUTICALS, INC., priority 2012, dated 2019).
# Key:
# SKBR3 cells = experiment: SKBR3 proliferation with anti-ErbB2 and anti-ErbB3 agents; type: cell-based, human; settings: 1 ng/ml NRG, 3 days
# Source text: The ability of sur-binding proteins to enhance the activity of trastuzumab and pertuzumab (anti-ErbB2 antibodies) was investigated in the ErbB2 overexpressing cell line SKBR3. ErbB2 overexpressing tumors were heterogeneous with respect to the amount of ligand in the tumor microenvironment. The anti-proliferative capacity of anti-ErbB2 and anti-ErbB3 agents in the absence (FIGS. 31 A, B, and C) and in the presence (FIGS. 31 D, E, and F) of NRG was examined.
# Agents were applied to cells in complete medium and proliferation was determined after 6 days using Cell Titer-Glo® (Promega).
# Agents were applied to cells in complete medium for 1 hour followed by stimulation with 1 ng/ml NRG. Proliferation was determined after 3 days using Cell Titer-Glo® (Promega).
# [1] = test system: phosphorylation of ErbB3, AKT and ERK1/2 in SKBR3 cells; experiment: Ligand-induced phosphorylation in SKBR3 cells; type: cell-based, human; settings: 1 ng/ml NRG 12 minutes
# Description: Ligand induced activation was measured by increased phosphorylation of ErbB3, AKT and ERK1/2. 500,000 SKBR3 cells were plated into wells of a 12 well tissue culture dish in serum free medium. The cells were incubated for 1 hour with the indicated amounts of SgG (see FIG. 29A, FIG. 29B, and FIG. 29C). They were then stimulated with 1 ng/ml NRG for 12 minutes. Cells were then washed in ice cold PBS, and lysed. Phosphorylated AKT, phosphorylated ErbB3 and phosphorylated ERK1/2 were measured in the lysates using ELISA kits from Cell Signaling Technologies®.
substance,measurement,setting,value
Trastuzumab: marketed antibody that targets ErbB2 and binds to the juxtamembrane extracellular domain,"inhibition of growth, single agent, NRG stimulated",SKBR3 cells,did not appreciably inhibit growth
same,"inhibition of growth, single agent, NRG stimulated",SKBR3 cells; listed as trastuzumab,little detectable activity as a single agent
same,"inhibition of ligand-induced phosphorylation of AKT, ErbB3 and ERK1/2",[1],did not inhibit phosphorylation
